This note sets out measurements from PubChem BioAssay AID504720 (Sanford-Burnham Center for Chemical Genomics, 2011).

Amino acid sequences for entries named in this document (tags omitted).
UniProt P0AE70, whole entry, looked up: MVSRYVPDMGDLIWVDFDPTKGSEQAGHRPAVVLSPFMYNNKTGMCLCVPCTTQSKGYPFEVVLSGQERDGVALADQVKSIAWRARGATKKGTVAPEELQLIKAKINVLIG

This is a selection; strong and weak results do not stand in their true shares. Some results for these compounds are left out of this collection, so the calls shown say nothing about other tests. Active and inactive are the calls of the source. Rule as the data show it: active = activation above about 50%; inactive = the rest.

For this assay, the target named is Endoribonuclease toxin MazF (Escherichia coli (strain K12)) (UniProt P0AE70). As to the kind of experiment: activators of E. coli MazEF toxin-antitoxin RNase, primary screen, biochemical, fluorescence, uHTS (AID 504720). The following applies: FAM/BHQ RNA-DNA oligo cleavage fluorescence, 5 h, at 20 µM, active compounds read high.
Turning to `CC(C)N1C(=O)CC2(CCN(CCOC(=O)C(O)(c3ccccc3)c3ccccc3)CC2)C1=O`, the activation was inactive: -0.451%.
Turning to `CCN(CC)CC(C)C(C)OC(=O)C(O)(c1ccccc1)c1ccccc1` (stereo unspecified), the activation was inactive: 8.28%.
The same measure for `COc1cc(SC)ccc1C(=O)NCC1(N(C)C)CCCCC1`: inactive: -8.43%; for `Cc1ccc(C(=O)NCC2(N3CCCCC3)CCCCC2)cc1`: inactive: 9.04%; for `O=C(NCC1(N2CCCCC2)CCCCC1)c1cc([N+](=O)[O-])ccc1Cl`: inactive: -4.36%.
Consider `CN1[C@@H]2CC[C@H]1CC(OC(=O)C(O)(c1ccccc1)c1ccccc1)C2` (stereo partly specified), for which the activation was inactive: 1.67%.
Next, `C=CCN1CCN(CCOC(=O)C(O)(c2ccccc2)c2ccccc2)CC1`: inactive: -0.585%; `O=C(NCC1(N2CCCCC2)CCCCC1)c1cc(F)c(F)cc1Cl`: inactive: -1.03%.
The same measure for `CCN1CCCC(OC(=O)C2(O)c3ccccc3C=Cc3ccccc32)C1` (stereo unspecified): inactive: 5.22%; for `Cc1cc(C(=O)NCC2(N3CCCCC3)CCCCC2)ccc1[N+](=O)[O-]`: inactive: 11.8%; for `O=C(NCC1(N2CCCCC2)CCCCC1)c1cccc(Br)c1`: inactive: 8.91%.
As for `COc1ccc(C(=O)NCC2(N(C)C)CCCCC2)cc1`, the activation is inactive: 5.08%.
On to `Cc1ccccc1C(=O)NCC1(N2CCCCC2)CCCCC1`, for which the activation was inactive: 8.27%.
In the case of `CN(C)c1ccc(C(=O)NCC2(N(C)C)CCCCC2)cc1`, the activation is inactive: 6.84%.
The same measure for `CN(C)C1CCCC1OC(=O)C(O)(c1ccccc1)c1ccccc1` (stereo unspecified): inactive: 6.5%; for `COc1cccc(C(=O)NCC2(N3CCCCC3)CCCCC2)c1`: inactive: 2.04%.
In the case of `COc1ccc(Cl)cc1C(=O)NCC1(N(C)C)CCCCC1`, the activation was inactive: 5.18%.
Regarding `O=C(NCC1(N2CCCCC2)CCCCC1)c1cccc(Cl)c1`, the activation was inactive: -8.32%.
Turning to `CN(C)C1(CNC(=O)c2ccc(Br)cc2)CCCCC1`, the activation was inactive: -6.33%.
On to `COc1cc(C(=O)NCC2(N(C)C)CCCCC2)c([N+](=O)[O-])cc1OC`, for which the activation was inactive: 11.6%.
On to `COc1ccc(Br)c(C(=O)NCC2(N3CCCCC3)CCCCC2)c1`, for which the activation is inactive: -13.7%.
As to `C=C(C)C#CC(O)(C(=O)OC1CCN(C)CC1)c1ccccc1` (stereo unspecified), the activation was inactive: -9.79%.
In the case of `CN(C)c1cccc(C(=O)NCC2(N(C)C)CCCCC2)c1`, the activation was inactive: 7.9%.
On to `CC(C)Oc1ccc(C(=O)NCC2(N(C)C)CCCCC2)cc1`, for which the activation was inactive: 4.85%.
Turning to `O=C(OCCN1CCCC1)C(O)(c1ccccc1)c1ccccc1`, the activation was inactive: 12.1%.
The same measure for `O=C(OC1CN2CCC1CC2)C(CO)(c1ccccc1)c1ccccc1` (stereo unspecified): inactive: 10.9%.
